# From patent publication US20240150333A1, “TAF1 INHIBITORS” (H. LEE MOFFITT CANCER CENTER AND RESEARCH INSTITUTE, INC., priority 2020, published 2024)
# Test system: A549 lung cancer cells
# Assay: p53 pathway markers by western blot in A549 cells
# Format: cell-based, human
structure (smiles),measurement,value
C[C@@H]1COCCN1c1cc(-c2ccnn2C)c2ccnc(-c3ccn[nH]3)c2n1 [BAY1895344],induction of the p53 targets p21 and MDM2,no induction
same,p53 levels,minor increase
